Test results published in patent US20040175368A1 (Wisconsin Alumni Research Foundation, priority 2001, published 2004).
Where two headings read alike, the source gives them in different places.

Tested on: L1210 leukemia cells
Conditions: for phototoxicity toward L1210 leukemia cells (in words): 1.0×10^−6 M dye, 12% FBS, light up to 90 min (FIG. 3 upper panel); for selectivity of phototoxic effect, tumor (L1210) versus normal (CFU-GM) cells (in words): comparison of FIG. 3 upper and lower panels

## CCN(CC)c1ccc(C(=C2C=CC(=[N+](CC)CC)C=C2)c2ccc(N(CC)CC)cc2)cc1 [EV^+, ethyl violet]
  phototoxicity toward L1210 leukemia cells (in words): phototoxic toward both cell lines
  selectivity of phototoxic effect, tumor (L1210) versus normal (CFU-GM) cells (in words): slightly

## CN(C)c1ccc(C(=C2C=CC(=[N+](C)C)C=C2)c2ccc(N(C)C)cc2)cc1 [CV^+, crystal violet]
Cell suspension purged with argon immediately before irradiation (data not shown)
  phototoxic effect toward L1210 cells on purging with argon: lowered
Cell suspension purged with oxygen before irradiation (data not shown)
  phototoxic effect toward L1210 cells on purging with oxygen: enhanced
  selectivity of phototoxic effect, tumor (L1210) versus normal (CFU-GM) cells (in words): substantially more efficient in selectively photoinactivating L1210 cells

## CCN=C1C=CC(=C(c2ccc(N(CC)CC)cc2)c2ccc(N(CC)CC)cc2)c2ccccc21.Cl [VPBBO^+, victoria pure blue BO]
  phototoxicity toward L1210 leukemia cells (in words): reasonable efficiency
Listed as VPBBO+
  phototoxicity toward L1210 leukemia cells (in words): intermediate efficacy

## CCN=C1C=CC(=C(c2ccc(N(C)C)cc2)c2ccc(N(C)C)cc2)c2ccccc21.Cl [VBR^+, victoria blue R]
  phototoxicity toward L1210 leukemia cells (in words): lowest efficacy
  selectivity of phototoxic effect, tumor (L1210) versus normal (CFU-GM) cells (in words): slightly
